# Results: ChEMBL document CHEMBL2218924, “A broad activity screen in support of a chemogenomic map for kinase signalling research and drug discovery” (Biochem J, 2013)
# Sequences of proteins named here, by UniProt entry; tags and fusion partners are left off. A change or cut given only in a name is not applied to a line headed by its entry.
# UniProt Q9HCP0: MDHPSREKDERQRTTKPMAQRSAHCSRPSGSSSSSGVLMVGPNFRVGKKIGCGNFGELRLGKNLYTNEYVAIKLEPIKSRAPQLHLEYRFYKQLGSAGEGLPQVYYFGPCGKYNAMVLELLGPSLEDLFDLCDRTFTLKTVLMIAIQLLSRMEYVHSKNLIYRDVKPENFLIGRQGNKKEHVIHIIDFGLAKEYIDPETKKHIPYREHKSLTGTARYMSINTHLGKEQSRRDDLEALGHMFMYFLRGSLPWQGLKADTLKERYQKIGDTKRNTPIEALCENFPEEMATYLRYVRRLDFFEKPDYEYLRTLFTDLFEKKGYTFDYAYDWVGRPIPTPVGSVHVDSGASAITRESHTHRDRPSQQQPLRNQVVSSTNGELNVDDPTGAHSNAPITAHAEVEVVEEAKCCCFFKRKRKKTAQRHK
# UniProt P68400, whole entry, looked up: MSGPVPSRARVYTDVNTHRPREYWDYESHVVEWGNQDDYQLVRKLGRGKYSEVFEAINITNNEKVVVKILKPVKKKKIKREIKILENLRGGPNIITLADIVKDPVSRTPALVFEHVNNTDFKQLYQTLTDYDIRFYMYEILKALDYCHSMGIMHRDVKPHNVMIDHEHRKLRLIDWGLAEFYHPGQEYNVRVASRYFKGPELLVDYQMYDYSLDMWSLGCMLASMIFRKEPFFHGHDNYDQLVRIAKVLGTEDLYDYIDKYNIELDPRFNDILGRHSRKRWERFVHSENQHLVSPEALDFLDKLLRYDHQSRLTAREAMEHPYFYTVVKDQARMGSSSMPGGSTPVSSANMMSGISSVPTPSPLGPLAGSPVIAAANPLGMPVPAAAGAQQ
# UniProt Q9HBY8: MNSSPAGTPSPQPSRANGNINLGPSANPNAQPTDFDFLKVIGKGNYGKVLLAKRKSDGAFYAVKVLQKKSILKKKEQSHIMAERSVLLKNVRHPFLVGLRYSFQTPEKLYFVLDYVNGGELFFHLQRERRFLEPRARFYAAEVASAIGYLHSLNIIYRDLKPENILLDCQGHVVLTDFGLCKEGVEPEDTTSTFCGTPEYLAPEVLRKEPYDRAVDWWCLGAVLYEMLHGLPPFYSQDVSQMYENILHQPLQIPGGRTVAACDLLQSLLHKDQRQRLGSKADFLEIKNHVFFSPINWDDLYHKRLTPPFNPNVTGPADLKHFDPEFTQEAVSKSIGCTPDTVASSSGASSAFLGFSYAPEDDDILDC
# UniProt P57059: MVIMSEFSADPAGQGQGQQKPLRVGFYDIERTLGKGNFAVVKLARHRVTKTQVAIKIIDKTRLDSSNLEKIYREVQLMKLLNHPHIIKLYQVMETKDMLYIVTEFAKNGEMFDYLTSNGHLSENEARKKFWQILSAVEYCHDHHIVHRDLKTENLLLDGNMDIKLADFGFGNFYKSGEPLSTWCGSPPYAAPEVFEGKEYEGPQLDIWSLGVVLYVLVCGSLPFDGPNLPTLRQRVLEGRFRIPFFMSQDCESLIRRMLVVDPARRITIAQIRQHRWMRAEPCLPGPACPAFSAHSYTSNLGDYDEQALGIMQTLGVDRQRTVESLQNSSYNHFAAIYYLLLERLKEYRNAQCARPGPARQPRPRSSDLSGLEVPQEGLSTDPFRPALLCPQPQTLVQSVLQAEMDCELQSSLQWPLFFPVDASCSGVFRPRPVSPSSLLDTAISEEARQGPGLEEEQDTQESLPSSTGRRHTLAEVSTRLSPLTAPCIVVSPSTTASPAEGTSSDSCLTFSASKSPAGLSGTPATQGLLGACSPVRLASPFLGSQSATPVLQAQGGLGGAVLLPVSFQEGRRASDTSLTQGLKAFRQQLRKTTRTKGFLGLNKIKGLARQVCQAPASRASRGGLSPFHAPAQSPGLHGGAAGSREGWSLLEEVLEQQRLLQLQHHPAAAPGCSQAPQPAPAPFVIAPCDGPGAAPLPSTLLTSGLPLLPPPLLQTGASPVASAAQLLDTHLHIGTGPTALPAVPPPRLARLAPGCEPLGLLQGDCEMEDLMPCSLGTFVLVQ
# UniProt O94804: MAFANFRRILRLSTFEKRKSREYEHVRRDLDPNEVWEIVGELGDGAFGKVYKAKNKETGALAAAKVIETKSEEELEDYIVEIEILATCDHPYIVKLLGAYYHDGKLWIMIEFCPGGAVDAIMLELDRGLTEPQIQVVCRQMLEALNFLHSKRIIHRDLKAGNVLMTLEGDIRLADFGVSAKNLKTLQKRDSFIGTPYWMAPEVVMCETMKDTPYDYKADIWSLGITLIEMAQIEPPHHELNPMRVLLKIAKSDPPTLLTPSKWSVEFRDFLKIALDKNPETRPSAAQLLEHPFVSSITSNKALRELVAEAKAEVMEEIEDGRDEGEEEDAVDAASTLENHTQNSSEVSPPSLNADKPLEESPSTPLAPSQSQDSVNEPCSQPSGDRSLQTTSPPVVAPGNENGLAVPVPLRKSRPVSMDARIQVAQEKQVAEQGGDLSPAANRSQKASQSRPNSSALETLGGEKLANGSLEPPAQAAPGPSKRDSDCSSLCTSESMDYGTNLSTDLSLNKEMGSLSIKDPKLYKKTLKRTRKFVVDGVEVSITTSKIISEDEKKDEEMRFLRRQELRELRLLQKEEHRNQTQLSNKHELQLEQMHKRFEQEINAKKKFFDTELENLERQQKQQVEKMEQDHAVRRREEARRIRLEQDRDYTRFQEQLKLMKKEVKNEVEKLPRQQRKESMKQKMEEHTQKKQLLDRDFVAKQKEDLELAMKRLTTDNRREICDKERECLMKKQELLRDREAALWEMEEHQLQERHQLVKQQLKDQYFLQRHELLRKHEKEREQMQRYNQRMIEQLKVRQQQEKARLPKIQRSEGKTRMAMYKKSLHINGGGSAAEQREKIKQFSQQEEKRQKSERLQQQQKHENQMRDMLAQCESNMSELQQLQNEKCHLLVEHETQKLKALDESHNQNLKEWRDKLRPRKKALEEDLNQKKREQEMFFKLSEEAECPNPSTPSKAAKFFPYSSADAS
# UniProt Q9Y3S1: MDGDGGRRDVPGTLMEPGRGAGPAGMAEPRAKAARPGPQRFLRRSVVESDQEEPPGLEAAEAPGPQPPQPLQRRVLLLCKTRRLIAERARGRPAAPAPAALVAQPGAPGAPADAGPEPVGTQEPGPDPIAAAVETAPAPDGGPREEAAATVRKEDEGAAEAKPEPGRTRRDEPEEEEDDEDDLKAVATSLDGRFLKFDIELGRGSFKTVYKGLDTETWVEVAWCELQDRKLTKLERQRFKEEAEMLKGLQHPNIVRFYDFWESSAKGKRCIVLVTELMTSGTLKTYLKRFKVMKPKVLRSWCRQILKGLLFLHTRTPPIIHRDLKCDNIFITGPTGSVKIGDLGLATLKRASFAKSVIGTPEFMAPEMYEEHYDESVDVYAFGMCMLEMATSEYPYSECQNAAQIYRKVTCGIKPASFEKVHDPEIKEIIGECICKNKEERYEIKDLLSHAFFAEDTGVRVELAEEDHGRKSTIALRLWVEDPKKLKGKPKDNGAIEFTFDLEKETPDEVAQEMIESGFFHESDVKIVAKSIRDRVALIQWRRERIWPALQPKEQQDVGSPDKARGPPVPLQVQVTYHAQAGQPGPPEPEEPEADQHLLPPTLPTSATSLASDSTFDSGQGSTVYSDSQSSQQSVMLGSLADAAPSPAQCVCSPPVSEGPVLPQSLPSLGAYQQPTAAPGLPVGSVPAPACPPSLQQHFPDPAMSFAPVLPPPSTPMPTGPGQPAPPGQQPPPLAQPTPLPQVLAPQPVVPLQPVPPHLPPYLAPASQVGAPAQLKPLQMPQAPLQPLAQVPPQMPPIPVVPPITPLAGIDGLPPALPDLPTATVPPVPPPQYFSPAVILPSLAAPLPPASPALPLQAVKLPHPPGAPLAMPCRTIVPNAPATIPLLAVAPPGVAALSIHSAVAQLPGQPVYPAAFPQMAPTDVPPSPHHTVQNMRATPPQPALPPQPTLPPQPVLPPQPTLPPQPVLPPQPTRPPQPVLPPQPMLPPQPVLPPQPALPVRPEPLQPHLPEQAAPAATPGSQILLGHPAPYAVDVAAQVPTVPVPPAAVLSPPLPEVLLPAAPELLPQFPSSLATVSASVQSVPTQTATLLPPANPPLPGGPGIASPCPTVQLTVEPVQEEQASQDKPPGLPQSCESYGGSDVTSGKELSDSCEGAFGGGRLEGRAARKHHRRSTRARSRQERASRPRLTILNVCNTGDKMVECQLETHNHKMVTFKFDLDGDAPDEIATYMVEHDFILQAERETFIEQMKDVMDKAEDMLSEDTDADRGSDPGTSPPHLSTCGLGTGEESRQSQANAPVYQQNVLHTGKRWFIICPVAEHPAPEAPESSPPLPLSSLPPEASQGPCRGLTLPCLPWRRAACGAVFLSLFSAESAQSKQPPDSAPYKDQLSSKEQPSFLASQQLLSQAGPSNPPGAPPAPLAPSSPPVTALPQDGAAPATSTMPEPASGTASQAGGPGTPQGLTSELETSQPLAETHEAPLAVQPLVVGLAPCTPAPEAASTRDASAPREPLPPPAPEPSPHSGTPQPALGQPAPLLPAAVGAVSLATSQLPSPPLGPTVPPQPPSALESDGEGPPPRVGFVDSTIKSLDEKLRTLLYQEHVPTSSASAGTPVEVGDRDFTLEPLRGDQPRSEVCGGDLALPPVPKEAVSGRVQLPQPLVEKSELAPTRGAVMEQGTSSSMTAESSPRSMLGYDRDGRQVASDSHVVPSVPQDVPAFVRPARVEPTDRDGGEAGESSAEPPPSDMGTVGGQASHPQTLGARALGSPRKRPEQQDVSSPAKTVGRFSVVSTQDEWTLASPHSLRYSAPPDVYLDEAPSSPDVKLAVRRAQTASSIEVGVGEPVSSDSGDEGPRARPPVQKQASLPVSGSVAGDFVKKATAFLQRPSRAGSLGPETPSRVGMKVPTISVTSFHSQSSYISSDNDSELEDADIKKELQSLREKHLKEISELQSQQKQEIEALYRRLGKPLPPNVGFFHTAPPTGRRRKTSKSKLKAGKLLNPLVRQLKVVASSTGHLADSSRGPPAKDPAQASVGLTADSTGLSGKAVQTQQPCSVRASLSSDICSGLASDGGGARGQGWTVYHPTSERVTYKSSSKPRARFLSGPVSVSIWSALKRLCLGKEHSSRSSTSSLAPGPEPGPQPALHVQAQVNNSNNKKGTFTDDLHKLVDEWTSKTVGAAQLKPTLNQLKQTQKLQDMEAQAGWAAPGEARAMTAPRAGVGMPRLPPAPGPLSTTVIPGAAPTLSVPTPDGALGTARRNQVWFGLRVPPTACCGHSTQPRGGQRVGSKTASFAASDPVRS
# UniProt O60285: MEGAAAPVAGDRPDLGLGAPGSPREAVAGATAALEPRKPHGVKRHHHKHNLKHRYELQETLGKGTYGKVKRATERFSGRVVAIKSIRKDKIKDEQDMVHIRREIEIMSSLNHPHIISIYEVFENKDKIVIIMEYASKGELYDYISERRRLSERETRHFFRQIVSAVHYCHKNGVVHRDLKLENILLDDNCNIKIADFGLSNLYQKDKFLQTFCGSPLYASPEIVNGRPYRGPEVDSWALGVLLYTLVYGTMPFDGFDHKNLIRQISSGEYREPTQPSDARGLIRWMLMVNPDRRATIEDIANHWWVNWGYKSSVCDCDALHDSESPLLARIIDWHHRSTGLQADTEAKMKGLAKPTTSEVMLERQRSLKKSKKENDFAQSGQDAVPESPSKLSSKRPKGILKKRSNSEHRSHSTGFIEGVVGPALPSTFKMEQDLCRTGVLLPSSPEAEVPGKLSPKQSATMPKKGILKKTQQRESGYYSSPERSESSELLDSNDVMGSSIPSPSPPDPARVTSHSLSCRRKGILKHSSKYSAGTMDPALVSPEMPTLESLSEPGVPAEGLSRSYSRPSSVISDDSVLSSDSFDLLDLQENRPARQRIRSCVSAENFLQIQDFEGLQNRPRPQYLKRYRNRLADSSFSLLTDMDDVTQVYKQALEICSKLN
# UniProt P05771, whole entry, looked up: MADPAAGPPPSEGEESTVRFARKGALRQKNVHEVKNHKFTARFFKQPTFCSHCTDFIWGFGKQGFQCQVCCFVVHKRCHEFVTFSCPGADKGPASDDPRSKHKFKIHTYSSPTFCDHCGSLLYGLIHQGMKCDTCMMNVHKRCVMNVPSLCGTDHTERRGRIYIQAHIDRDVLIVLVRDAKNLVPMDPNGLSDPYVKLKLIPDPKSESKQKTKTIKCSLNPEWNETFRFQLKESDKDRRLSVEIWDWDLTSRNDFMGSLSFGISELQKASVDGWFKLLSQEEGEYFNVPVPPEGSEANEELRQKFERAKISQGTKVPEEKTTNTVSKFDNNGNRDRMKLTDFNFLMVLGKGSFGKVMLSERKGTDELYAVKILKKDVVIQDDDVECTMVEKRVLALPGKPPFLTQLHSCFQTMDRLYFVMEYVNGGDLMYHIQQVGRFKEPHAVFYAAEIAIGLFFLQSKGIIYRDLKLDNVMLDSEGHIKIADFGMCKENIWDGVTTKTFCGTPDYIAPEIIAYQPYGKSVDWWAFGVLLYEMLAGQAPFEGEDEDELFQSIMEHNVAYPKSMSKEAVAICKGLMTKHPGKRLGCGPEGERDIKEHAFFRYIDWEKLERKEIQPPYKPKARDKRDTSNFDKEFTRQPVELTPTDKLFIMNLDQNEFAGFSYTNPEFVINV
# For some of these results: Shown are results outside the selection of strong results, which stands elsewhere. The rule behind the calls is not given here. This is a selection; strong and weak results do not stand in their true shares.
# Legend:
# [1] = target: Epidermal growth factor receptor (Homo sapiens) (UniProt P00533); settings: at 1 µM
# [2] = target: Epidermal growth factor receptor (Homo sapiens) (UniProt P00533); settings: at 10 µM
# [3] = target: T1, Eukaryotic elongation factor 2 kinase (Homo sapiens) (UniProt O00418); settings: at 10 µM
# T1 sequence (whole entry): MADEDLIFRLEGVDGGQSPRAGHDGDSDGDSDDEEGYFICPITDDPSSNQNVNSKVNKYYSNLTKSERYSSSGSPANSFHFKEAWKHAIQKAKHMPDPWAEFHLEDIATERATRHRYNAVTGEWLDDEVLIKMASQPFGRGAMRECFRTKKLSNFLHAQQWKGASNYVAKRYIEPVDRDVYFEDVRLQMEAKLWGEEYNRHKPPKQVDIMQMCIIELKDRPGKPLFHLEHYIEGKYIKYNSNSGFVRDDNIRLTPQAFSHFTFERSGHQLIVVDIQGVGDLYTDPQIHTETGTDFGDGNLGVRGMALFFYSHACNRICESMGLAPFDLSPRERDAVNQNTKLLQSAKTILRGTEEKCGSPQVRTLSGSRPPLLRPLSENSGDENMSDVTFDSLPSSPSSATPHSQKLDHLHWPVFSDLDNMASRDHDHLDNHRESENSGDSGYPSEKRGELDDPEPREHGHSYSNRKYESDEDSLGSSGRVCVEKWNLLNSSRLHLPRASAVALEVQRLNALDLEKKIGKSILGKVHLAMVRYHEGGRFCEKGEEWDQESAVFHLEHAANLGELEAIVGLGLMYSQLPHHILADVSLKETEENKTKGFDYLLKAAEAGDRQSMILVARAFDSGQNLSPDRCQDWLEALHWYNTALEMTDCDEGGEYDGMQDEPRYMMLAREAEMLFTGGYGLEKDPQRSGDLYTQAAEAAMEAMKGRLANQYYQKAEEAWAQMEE
# [4] = target: Receptor tyrosine-protein kinase erbB-4 (Homo sapiens) (UniProt Q15303); settings: at 10 µM
# [5] = target: Ribosomal protein S6 kinase alpha-5 (Homo sapiens) (UniProt O75582); settings: at 1 µM
# [6] = target: T1, Eukaryotic elongation factor 2 kinase (Homo sapiens); settings: at 1 µM
# [7] = target: cAMP-dependent protein kinase catalytic subunit alpha (Homo sapiens) (UniProt P17612); settings: at 10 µM
# [8] = target: CDK9/cyclin T1 (Homo sapiens) (UniProt O60563+P50750); settings: at 10 µM
# [9] = target: Casein kinase I isoform gamma-1 (Homo sapiens) (UniProt Q9HCP0); settings: at 1 µM
# [10] = target: Casein kinase II (Homo sapiens) (UniProt P67870+P68400+P19784); settings: at 1 µM;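 also: residual kinase activity expressed relative to control, in HEPES buffer at pH 7.6 with NaCl, EDTA, DTT and Triton X-100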
# [11] = target: Ephrin type-A receptor 7 (Homo sapiens) (UniProt Q15375); settings: at 10 µM
# [12] = target: Macrophage colony-stimulating factor 1 receptor (Homo sapiens) (UniProt P07333); settings: at 10 µM
# [13] = target: Macrophage-stimulating protein receptor (Homo sapiens) (UniProt Q04912); settings: at 10 µM
# [14] = target: Serine/threonine-protein kinase Sgk2 (Homo sapiens) (UniProt Q9HBY8); settings: at 1 µM
# [15] = target: Serine/threonine-protein kinase SIK1 (Homo sapiens) (UniProt P57059); settings: at 1 µM
# [16] = target: Tyrosine-protein kinase SYK (Homo sapiens) (UniProt P43405); settings: at 10 µM
# [17] = target: Mitogen-activated protein kinase kinase kinase 7 (Homo sapiens) (UniProt O43318); settings: at 1 µM
# [18] = target: Serine/threonine-protein kinase 10 (Homo sapiens) (UniProt O94804); settings: at 1 µM
# [19] = target: Tyrosine-protein kinase Tec (Homo sapiens) (UniProt P42680); settings: at 10 µM
# [20] = target: Serine/threonine-protein kinase WNK2 (Homo sapiens) (UniProt Q9Y3S1); settings: at 10 µM
# [21] = target: Tyrosine-protein kinase Yes (Homo sapiens) (UniProt P07947); settings: at 10 µM
# [22] = target: RAF proto-oncogene serine/threonine-protein kinase (Homo sapiens) (UniProt P04049); settings: at 1 µM
# [23] = target: Proto-oncogene tyrosine-protein kinase Src (Homo sapiens) (UniProt P12931); settings: at 1 µM
# [24] = target: Serine/threonine-protein kinase mTOR (Homo sapiens) (UniProt P42345); settings: at 1 µM
# [25] = target: Serine/threonine-protein kinase Nek6 (Homo sapiens) (UniProt Q9HC98); settings: at 10 µM
# [26] = target: ALK tyrosine kinase receptor (Homo sapiens) (UniProt Q9UM73); settings: at 1 µM
# [27] = target: Activin receptor type-1B (Homo sapiens) (UniProt P36896); settings: at 10 µM
# [28] = target: NUAK family SNF1-like kinase 1 (Homo sapiens) (UniProt O60285); settings: at 10 µM
# [29] = target: cAMP-dependent protein kinase catalytic subunit alpha (Homo sapiens) (UniProt P17612); settings: at 1 µM
# [30] = target: Protein kinase C beta type (Homo sapiens) (UniProt P05771); settings: at 10 µM
# [31] = target: Mitogen-activated protein kinase 8 (Homo sapiens) (UniProt P45983); settings: at 1 µM
# [32] = target: Mitogen-activated protein kinase 8 (Homo sapiens) (UniProt P45983); settings: at 10 µM
# [33] = target: Protein kinase C alpha type (Homo sapiens) (UniProt P17252); settings: at 1 µM
# [34] = target: Protein kinase C alpha type (Homo sapiens) (UniProt P17252); settings: at 10 µM
# [35] = target: Homeodomain-interacting protein kinase 3 (Homo sapiens) (UniProt Q9H422); settings: at 1 µM
structure (smiles),measurement,setting,value
CC(C)(C)c1cc(C=C(C#N)C#N)cc(Br)c1O,residual activity,[1],118%
same,residual activity,[2],116%
same,residual activity,[3],118%
COc1cc2ncnc(Nc3ccc(OCc4ccccc4)cc3)c2cc1OC,residual activity,[1],-3%
same,residual activity,[2],-3%
same,residual activity,[4],-3%
same,residual activity,[5],140%
same,residual activity,[6],inactive: 87%
same,residual activity,[3],142%
same,residual activity,[7],141%
O=C1c2ccccc2-c2nc3nnnn3nc21,residual activity,[8],94%
same,residual activity,[9],91%
same,residual activity,[10],97%
same,residual activity,[1],126%
same,residual activity,[2],121%
same,residual activity,[11],96%
same,residual activity,[12],92%
same,residual activity,[13],92%
same,residual activity,[14],94%
same,residual activity,[15],98%
same,residual activity,[16],97%
same,residual activity,[17],99%
same,residual activity,[18],98%
same,residual activity,[19],86%
same,residual activity,[20],89%
same,residual activity,[21],90%
same,residual activity,[22],87%
same,residual activity,[23],85%
same,residual activity,[6],inactive: 95%
same,residual activity,[3],109%
same,residual activity,[24],93%
same,residual activity,[25],99%
same,residual activity,[26],96%
same,residual activity,[27],91%
same,residual activity,[28],93%
same,residual activity,[29],95%
same,residual activity,[30],88%
O=c1[nH]c2ccccc2n1C1CCN(Cc2ccc(-c3nc4cc5[nH]cnc5cc4nc3-c3ccccc3)cc2)CC1,residual activity,[1],105%
same,residual activity,[2],106%
same,residual activity,[6],inactive: 105%
COc1cc(OC)c(/C=C2\C(=O)Nc3ccccc32)c(OC)c1,residual activity,[31],94%
same,residual activity,[32],84%
same,residual activity,[6],inactive: 97%
same,residual activity,[3],99%
same,residual activity,[33],104%
same,residual activity,[34],90%
CCn1cnc2c(Nc3cccc(Cl)c3)nc(N[C@@H]3CCCC[C@@H]3N)nc21,residual activity,[3],138%
CO[C@H]1[C@@H](OC)C[C@H](C)[C@@H](OC)C2=CC(=O)C=C(NC(=O)/C(C)=C/C=C/[C@H](OC)[C@@H](OC(N)=O)/C(C)=C/[C@@H]1C)C2=O,residual activity,[1],108%
same,residual activity,[2],115%
CCc1nc(-c2ccc(OC)cc2)[nH]c1-c1ccncc1,residual activity,[1],114%
same,residual activity,[2],106%
CC(C)[C@H](CO)Nc1nc(Nc2cccc(Cl)c2)c2ncn(C(C)C)c2n1,residual activity,[2],95%
same,residual activity,[35],101%
COC(=O)[C@@]1(O)C[C@H]2O[C@]1(C)n1c3ccccc3c3c4c(c5c6ccccc6n2c5c31)C(=O)NC4,residual activity,[1],72%
same,residual activity,[2],47%
same,residual activity,[6],inactive: 124%
same,residual activity,[3],115%
O=[N+]([O-])/C=C/c1ccc2c(c1)OCO2,residual activity,[1],132%
same,residual activity,[2],114%
same,residual activity,[6],inactive: 89%
same,residual activity,[3],106%
O=C1Nc2ccc3ncsc3c2/C1=C/c1c[nH]cn1,residual activity,[1],116%
same,residual activity,[6],inactive: 79%
same,residual activity,[3],97%
